{
  "source": "patent US20200132691A1",
  "about": "“DETECTION AND TARGETING OF TUMOR-PROMOTING NEUTROPHILS” (THE GENERAL HOSPITAL CORPORATION, priority 2017, published 2020)",
  "key": {"developing neutrophils": {"test_system": "developing neutrophils", "experiment": "In vitro co-culture of hematopoietic precursors and bone marrow stromal cells +/- sRAGE", "type": "cell-based, mouse", "method": "To test whether sRAGE altered neutrophil maturation from hematopoietic precursors via stromal cells, co-culture experiments were performed. In detail, 1×10^3 ST2 cells per well were cultured in 96 well plates for two days. Then, bone marrow was harvested from tumor-free mice and depleted of differentiated cells using negative MACS bead separation (Abs specific for B220, CD19, Ter119, CD11c, CD11b, NK1.1, Dx5, CD127, Ly-6G and CD90.2 were utilized). The flow-through was collected. The following conditions were tested: ST2 cells, with or without 1×10^4 lineage negative bone marrow cells, and with increased doses of sRAGE (namely: no sRAGE, 0.01 μg/ml, 0.1 μg/ml, 1 μg/ml). Neutrophil maturation was evaluated after three days by staining for CD11b, Ly-6G and CXCR2 surface expression using flow cytometry (1)."}, "bone marrow cells": {"test_system": "bone marrow cells", "experiment": "In vitro alkaline phosphatase assay for osteoblastic colony formation", "type": "cell-based, mouse", "details": "serum from tumor-free mice supplemented with sRAGE vs control conditions", "method": "To study whether tumor derived circulating factors can affect the osteogenic potential, osteoblastic colony formation was investigated after addition of serum pooled from individual mice that were either tumor-bearing or tumor-free. In some experiments tumor-free serum with or without sRAGE was added. Long bones (femur and tibia) and vertebrae of tumor-free C57BL/6 mice were harvested and flushed. Single cell suspensions were generated using 70 µm cell strainer and red blood cells removed in a ACK lysis step. Cells were counted and resuspended (4×10^7/ml) in osteogenic medium (DMEM supplemented with 10% FBS and 1% penicillin/streptomycin, 10 mM B-glycerophosphate and 50 μg/ml ascorbic acid). 4×10^6 cells were transferred to 6 well cell culture plates and 200 μl serum of tumor-bearing or tumor-free mice added. Medium was refreshed every second day and non-adherent cells were removed. Cells were fixed after 9-10 days by adding 4% PFA for 8 min followed by 2 washing steps with H2O and the alkaline phosphate substrate reaction (B5655, Sigma) according to manufactures procedure. As counter stain, Nucleofast Red (Polysciences, Inc) was used. The number of ALP positive colonies was evaluated by 2-3 independent persons in a blinded manner."}},
  "data": [
    {"substance": "sRAGE: The circulating form of RAGE, referred to as soluble RAGE; added exogenously to cultures", "values": [
      {"measurement": "CXCR2 expression on developing neutrophils", "setting": "developing neutrophils; Lin- cKit+ bone marrow hematopoietic cells, increasing doses of exogenous sRAGE", "value": "increases"},
      {"measurement": "CXCR2 expression, dependence on stromal cells", "setting": "developing neutrophils; with or without ST2 pre-osteoblastic cell line", "value": "increased only in the presence of bone marrow stromal cells"},
      {"measurement": "osteoblastic colony forming units", "setting": "bone marrow cells", "value": "significantly increased"}
    ]}
  ]
}
